Values quoted from earlier work in PMC10353187, “Discovery of a new potent oxindole multi-kinase inhibitor among a series of designed 3-alkenyl-oxindoles with ancillary carbonic anhydrase inhibitory activity as antiproliferative agents” (BMC Chemistry, 2023).

Tested on: VEGFRII
Settings: VEGFR-2, inhibitor co-crystallized in PDB ID: 4ASD; ref 4 (supplement); cited from earlier work

Compound: CNC(=O)c1cc(Oc2ccc(NC(=O)Nc3ccc(Cl)c(C(F)(F)F)c3)cc2)ccn1 [sorafenib]
- IC50: 90 nM
